# Results taken from PubChem BioAssay AID588347 (National Center for Advancing Translational Sciences (NCATS), 2011).
# Amino acid sequences for entries named in this document (tags omitted).
# UniProt Q92830, whole entry, looked up: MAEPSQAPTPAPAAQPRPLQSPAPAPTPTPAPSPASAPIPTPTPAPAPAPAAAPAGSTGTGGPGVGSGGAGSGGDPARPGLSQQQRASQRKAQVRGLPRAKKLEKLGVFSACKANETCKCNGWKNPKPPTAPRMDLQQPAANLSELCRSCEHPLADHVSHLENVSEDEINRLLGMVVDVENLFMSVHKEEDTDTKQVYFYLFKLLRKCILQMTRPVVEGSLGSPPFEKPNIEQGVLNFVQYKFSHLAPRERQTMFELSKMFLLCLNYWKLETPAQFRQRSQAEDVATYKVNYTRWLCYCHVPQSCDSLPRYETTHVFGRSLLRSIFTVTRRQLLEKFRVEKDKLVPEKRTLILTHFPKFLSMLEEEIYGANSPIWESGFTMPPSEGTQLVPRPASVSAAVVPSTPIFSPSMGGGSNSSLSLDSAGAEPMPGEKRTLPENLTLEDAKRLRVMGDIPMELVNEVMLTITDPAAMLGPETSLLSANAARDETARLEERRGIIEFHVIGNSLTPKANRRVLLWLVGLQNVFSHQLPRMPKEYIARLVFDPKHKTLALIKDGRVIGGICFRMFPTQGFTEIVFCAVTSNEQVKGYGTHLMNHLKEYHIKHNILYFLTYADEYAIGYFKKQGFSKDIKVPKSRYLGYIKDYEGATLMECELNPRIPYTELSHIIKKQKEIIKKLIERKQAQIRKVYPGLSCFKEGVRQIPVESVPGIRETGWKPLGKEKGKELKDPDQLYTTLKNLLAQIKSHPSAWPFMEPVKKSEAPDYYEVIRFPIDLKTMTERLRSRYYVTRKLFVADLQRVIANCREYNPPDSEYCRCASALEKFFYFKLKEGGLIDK
# The entries are a selection whose mix differs from that of the whole data set. Records with an inconclusive call do not appear. Active and inactive are the calls of the source. Calls follow the shape of the dose curve; as a rule, active = well fitted inhibition curve with a large enough effect; inconclusive = small, poorly fitted or top-dose-only effect, or another doubt; inactive = no such curve, though single readings can be large or run the other way.
# Target: Histone acetyltransferase KAT2A (Homo sapiens) (UniProt Q92830)
# Assay: qHTS Assay for Inhibitors of GCN5L2: Hit confirmation
# Conditions: GCN5L2 HAT, ThioGlo1 CoA fluorescence, 20 min
# From the text: Histone acetyltransferase (HAT) enzymes transfer a […] group from acetyl-coenzyme A to the epsilon-amino group of conserved lysine residues of N-terminal histone tails. Acetylation results in charge neutralization of this positively charged amino acid, decreasing interactions with the […] backbone and making the DNA more accessible for transcription. HATs have been recognized as an emerging drug target for treatment of cancer, diabetes, asthma, chronic obstructive pulmonary disease, cardiac disease, and viral infection. […] A quantitative high throughput screen was developed to identify small molecule inhibitors. […] Yasgar, et al. Compound Management for Quantitative High-Throughput Screening. […] Inglese, et al. Quantitative high-throughput screening: a titration-based approach that efficiently identifies biological activities in large chemical libraries. […]
# To each well of a 1,536w plate, 3ul of GCN5L2 (final concentration 20nM, in 50mM HEPES, 0.1mM EDTA (pH 7.5), 0.01% Tween-20 buffer) are added using a Kalypsys dispenser. […] Plates are read immediately on the ViewLux (PerkinElmer) (Ex340nm/Em540nm) for a 0 min read, incubated for 20 min at room temperature, and read again on the ViewLux with the same settings. The initial read was carried out to identify compounds that are potentially fluorescent.
smiles,measurement,value
O=P(Nc1nccs1)(c1ccccc1)c1nc2ccccc2s1 (stereo unspecified),Potency,active: 6.46 µM
